Test results published in ChEMBL document CHEMBL3627709, “Discovery of a Novel, Potent Spirocyclic Series of γ-Secretase Inhibitors” (J Med Chem, 2015).

Species on record: Homo sapiens
Experiment: Selectivity ratio of IC50 for human presenilin-2 to IC50 for human presenilin-1

CP1(=O)OCC2(CCC[C@@]3(S(=O)(=O)c4ccc(Cl)cc4)c4c(F)ccc(F)c4OC[C@@H]23)CO1 (stereo partly specified)
Ratio IC50: 33
